From patent EP4711365A1 (Shanghai Hansoh Biomedical Co., Ltd., priority 2023, dated 2024)

The chains behind the UniProt entries cited, without tags or fusion partners. Residues count along the entry.
UniProt Q16552, 24-155 limits assumed: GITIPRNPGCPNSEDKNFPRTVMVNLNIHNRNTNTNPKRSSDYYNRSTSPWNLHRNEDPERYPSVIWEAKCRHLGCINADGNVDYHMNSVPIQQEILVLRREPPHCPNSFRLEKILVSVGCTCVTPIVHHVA

Columns and labels:
[1] = biological target: human IL-17RA and IL-17A proteins (Homo sapiens, UniProt Q16552); assay: Competitive ELISA: blocking of binding between human IL-17RA and IL-17A; settings: coated IL-17A, IL-17RA 5 nM
[2] = system: Groα secretion by HT-29 cells; assay: Inhibition of Groα secretion by HT-29 cells stimulated with IL-17A (ELISA); settings: IL-17A 30 ng/ml, 48 hours, Groα in supernatant
Description: Test example 2 Assay for inhibitory effect of compounds of the present invention against Groα secretion by HT-29 cells
Experimental objective: to measure the inhibitory effect of the compounds against Groα secretion by HT-29 cells, thereby evaluating the inhibition of the compounds on IL-17A pathway.
Experimental method: A cell suspension at 50,000 cells/ml was prepared, and 200 µl of the cell suspension was added to each well of a 96-well plate, i.e., 10,000 cells/well. The plate was cultured overnight. In the 96-well V-bottom plate, 5 mM compound solution was serially diluted 3-fold using DMSO, and the compound from each well was diluted 100-fold using a complete culture medium. IL-17A protein (R&D, #BT7955-025/CF) with a stock concentration of 100 µg/ml was diluted 333.33-fold using a complete culture medium. The compound and IL-17A were mixed at a volume ratio of 1:1 and incubated at 37°C for 30 minutes. […]
The mixture was incubated in a 37°C, 5% CO2 cell culture incubator for 48 hours. The concentration of Groα in the supernatant was determined by ELISA method using Human Groα Valukin Elisa kit (Biotechne, # VAL139), and the absorbance intensity at 450 nm was measured using a microplate reader (PE, EnVision2105). Data were analysed using GraphPad Prism 8.3.0.
Experimental data processing method: Data were analysed using GraphPad Prism 8.3.0. […]

Work on `C[C@H]1CC[C@H]([C@H](NC(=O)C2(F)CC2)C(=O)Nc2ncc([C@@H](CN3CC4CC3CO4)N3CC(F)(F)CNC3=O)s2)CC1` (single isomer, unassigned) [746] yielded an IC50 [1] of 6 nM and an IC50 [2] of 3 nM.

`C[C@H]1CC[C@H]([C@H](NC(=O)C2(F)CC2)C(=O)Nc2ncc([C@@H](CN3CC4CC3CO4)N3CC(F)(F)CNC3=O)s2)CC1` (single isomer, unassigned) [747] gave an IC50 [1] of 7 nM and an IC50 [2] of 3 nM.
